# CycPeptMPDB entries from one study

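Lipid, pH, incubation time, direction and concentration are not recorded in the data file. The list need not hold all peptides of the study. Peptides that the database sets to -10, its floor, are left out.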

PAMPA is the parallel artificial membrane permeability assay, which has no cells and reads passive diffusion.
Permeability is given as log10 of P in cm/s; higher (less negative) is more permeable.

SMILES,PAMPA (log10 cm/s)
CC(=O)N1CCC[C@H]1C(=O)N(C)[C@@H](CC(C)C)C(=O)N[C@@H]1C(=O)N[C@@H](CC(C)C)C(=O)N[C@@H](CC(C)C)C(=O)N[C@H](CC(C)C)C(=O)N[C@H](C)C(=O)N[C@H](CC(C)C)C(=O)N2CCC[C@H]2C(=O)O[C@@H]1C,-6.39
CC(=O)N1CCC[C@@H]1C(=O)N(C)[C@@H](CC(C)C)C(=O)N[C@@H]1C(=O)N[C@H](CC(C)C)C(=O)N(C)[C@H](CC(C)C)C(=O)N[C@H](CC(C)C)C(=O)N(C)[C@@H](C)C(=O)N[C@H](CC(C)C)C(=O)N2CCC[C@H]2C(=O)O[C@@H]1C,-5.48
CC(=O)N1CCC[C@@H]1C(=O)N(C)[C@H](CC(C)C)C(=O)N[C@@H]1C(=O)N[C@@H](CC(C)C)C(=O)N[C@@H](CC(C)C)C(=O)N(C)[C@H](CC(C)C)C(=O)N(C)[C@@H](C)C(=O)N[C@H](CC(C)C)C(=O)N2CCC[C@@H]2C(=O)O[C@@H]1C,-6.28
CC(=O)N1CCC[C@@H]1C(=O)N(C)[C@@H](CC(C)C)C(=O)N[C@@H]1C(=O)N[C@H](CC(C)C)C(=O)N[C@H](CC(C)C)C(=O)N[C@H](CC(C)C)C(=O)N(C)[C@H](C)C(=O)N[C@H](CC(C)C)C(=O)N2CCC[C@H]2C(=O)O[C@@H]1C,-6.98
CC(=O)N1CCC[C@H]1C(=O)N(C)[C@@H](CC(C)C)C(=O)N[C@@H]1C(=O)N(C)[C@@H](CC(C)C)C(=O)N(C)[C@H](CC(C)C)C(=O)N(C)[C@H](CC(C)C)C(=O)N(C)[C@@H](C)C(=O)N[C@@H](CC(C)C)C(=O)N2CCC[C@H]2C(=O)O[C@@H]1C,-5.61
CC(=O)N1CCC[C@H]1C(=O)N(C)[C@@H](CC(C)C)C(=O)N[C@@H]1C(=O)N(C)[C@H](CC(C)C)C(=O)N(C)[C@@H](CC(C)C)C(=O)N[C@H](CC(C)C)C(=O)N[C@@H](C)C(=O)N[C@H](CC(C)C)C(=O)N2CCC[C@@H]2C(=O)O[C@@H]1C,-6.40
CC(=O)N1CCC[C@H]1C(=O)N(C)[C@H](CC(C)C)C(=O)N[C@@H]1C(=O)N(C)[C@@H](CC(C)C)C(=O)N[C@@H](CC(C)C)C(=O)N(C)[C@H](CC(C)C)C(=O)N(C)[C@@H](C)C(=O)N[C@@H](CC(C)C)C(=O)N2CCC[C@H]2C(=O)O[C@@H]1C,-5.20
CC(=O)N1CCC[C@H]1C(=O)N(C)[C@@H](CC(C)C)C(=O)N[C@@H]1C(=O)N(C)[C@H](CC(C)C)C(=O)N(C)[C@H](CC(C)C)C(=O)N[C@H](CC(C)C)C(=O)N(C)[C@H](C)C(=O)N[C@H](CC(C)C)C(=O)N2CCC[C@@H]2C(=O)O[C@@H]1C,-6.25
CC(=O)N1CCC[C@H]1C(=O)N(C)[C@@H](CC(C)C)C(=O)N[C@@H]1C(=O)N[C@H](CC(C)C)C(=O)N[C@@H](CC(C)C)C(=O)N[C@H](CC(C)C)C(=O)N(C)[C@@H](C)C(=O)N[C@@H](CC(C)C)C(=O)N2CCC[C@H]2C(=O)O[C@@H]1C,-5.47
CC(=O)N1CCC[C@@H]1C(=O)N(C)[C@@H](CC(C)C)C(=O)N[C@@H]1C(=O)N(C)[C@@H](CC(C)C)C(=O)N(C)[C@@H](CC(C)C)C(=O)N(C)[C@H](CC(C)C)C(=O)N(C)[C@@H](C)C(=O)N[C@H](CC(C)C)C(=O)N2CCC[C@H]2C(=O)O[C@@H]1C,-6.31
CC(=O)N1CCC[C@H]1C(=O)N(C)[C@@H](CC(C)C)C(=O)N[C@@H]1C(=O)N(C)[C@H](CC(C)C)C(=O)N[C@H](CC(C)C)C(=O)N[C@@H](CC(C)C)C(=O)N(C)[C@@H](C)C(=O)N[C@H](CC(C)C)C(=O)N2CCC[C@@H]2C(=O)O[C@@H]1C,-6.62
CC(=O)N1CCC[C@H]1C(=O)N(C)[C@H](CC(C)C)C(=O)N[C@@H]1C(=O)N[C@@H](CC(C)C)C(=O)N[C@H](CC(C)C)C(=O)N[C@H](CC(C)C)C(=O)N[C@@H](C)C(=O)N[C@@H](CC(C)C)C(=O)N2CCC[C@H]2C(=O)O[C@@H]1C,-6.66
CC(=O)N1CCC[C@H]1C(=O)N(C)[C@H](CC(C)C)C(=O)N[C@@H]1C(=O)N[C@@H](CC(C)C)C(=O)N[C@@H](CC(C)C)C(=O)N(C)[C@H](CC(C)C)C(=O)N[C@@H](C)C(=O)N[C@@H](CC(C)C)C(=O)N2CCC[C@H]2C(=O)O[C@@H]1C,-6.11
CC(=O)N1CCC[C@@H]1C(=O)N(C)[C@@H](CC(C)C)C(=O)N[C@@H]1C(=O)N[C@H](CC(C)C)C(=O)N[C@@H](CC(C)C)C(=O)N[C@@H](CC(C)C)C(=O)N(C)[C@H](C)C(=O)N[C@@H](CC(C)C)C(=O)N2CCC[C@@H]2C(=O)O[C@@H]1C,-5.71
CC(=O)N1CCC[C@@H]1C(=O)N(C)[C@H](CC(C)C)C(=O)N[C@@H]1C(=O)N[C@@H](CC(C)C)C(=O)N[C@@H](CC(C)C)C(=O)N(C)[C@@H](CC(C)C)C(=O)N(C)[C@@H](C)C(=O)N[C@@H](CC(C)C)C(=O)N2CCC[C@H]2C(=O)O[C@@H]1C,-6.31
CC(=O)N1CCC[C@@H]1C(=O)N(C)[C@H](CC(C)C)C(=O)N[C@@H]1C(=O)N[C@@H](CC(C)C)C(=O)N[C@H](CC(C)C)C(=O)N(C)[C@H](CC(C)C)C(=O)N(C)[C@@H](C)C(=O)N[C@H](CC(C)C)C(=O)N2CCC[C@H]2C(=O)O[C@@H]1C,-5.99
CC(=O)N1CCC[C@H]1C(=O)N[C@@H]1C(=O)N[C@H](CC(C)C)C(=O)N[C@@H](CC(C)C)C(=O)N(C)[C@H](CC(C)C)C(=O)N[C@H](CC(C)C)C(=O)N[C@@H](C)C(=O)N[C@@H](CC(C)C)C(=O)N2CCC[C@@H]2C(=O)O[C@@H]1C,-5.12
CC(=O)N1CCC[C@@H]1C(=O)N(C)[C@H](CC(C)C)C(=O)N[C@@H]1C(=O)N[C@H](CC(C)C)C(=O)N[C@H](CC(C)C)C(=O)N[C@H](CC(C)C)C(=O)N[C@H](C)C(=O)N[C@H](CC(C)C)C(=O)N2CCC[C@H]2C(=O)O[C@@H]1C,-6.44

The first 2 entries again:

SMILES,PAMPA (log10 cm/s)
CC(=O)N1CCC[C@H]1C(=O)N(C)[C@@H](CC(C)C)C(=O)N[C@@H]1C(=O)N[C@@H](CC(C)C)C(=O)N[C@@H](CC(C)C)C(=O)N[C@H](CC(C)C)C(=O)N[C@H](C)C(=O)N[C@H](CC(C)C)C(=O)N2CCC[C@H]2C(=O)O[C@@H]1C,-6.39
CC(=O)N1CCC[C@@H]1C(=O)N(C)[C@@H](CC(C)C)C(=O)N[C@@H]1C(=O)N[C@H](CC(C)C)C(=O)N(C)[C@H](CC(C)C)C(=O)N[C@H](CC(C)C)C(=O)N(C)[C@@H](C)C(=O)N[C@H](CC(C)C)C(=O)N2CCC[C@H]2C(=O)O[C@@H]1C,-5.48

Source: CycPeptMPDB (Li et al. 2023), which took these values from Kelly et al. 2021, doi:10.1021/jacs.0c06115.